Apparent Tm by DSF and half-life of the complex (slowest phase, peptide dissociation) data for one substance are collected here from PMC4837003.

For the assay, the target named is HLA-A*0201 heavy chain with β2-microglobulin. The experiment in a line: differential scanning fluorimetry. In general terms: In DSF a fluorescence change marks the thermal transition of the protein.

On to MART-1_(26(2L)-35) peptide, for which the apparent Tm by DSF was 59.4 °C and the half-life of the complex (slowest phase, peptide dissociation) came out at 16.9 h.
